This test addresses Recombinant human PSMA (rhPSMA) (Homo sapiens, UniProt Q04609). Description: NAALADase assay (competitive inhibition, Amplex Red glutamate readout). The settings on record: read-out: IC50, nM (NAALADase), substrate Ac-Asp-Glu, 1 h 37 °C.

Sequences of proteins named here, by UniProt entry; tags and fusion partners are left off.
UniProt Q04609, whole entry: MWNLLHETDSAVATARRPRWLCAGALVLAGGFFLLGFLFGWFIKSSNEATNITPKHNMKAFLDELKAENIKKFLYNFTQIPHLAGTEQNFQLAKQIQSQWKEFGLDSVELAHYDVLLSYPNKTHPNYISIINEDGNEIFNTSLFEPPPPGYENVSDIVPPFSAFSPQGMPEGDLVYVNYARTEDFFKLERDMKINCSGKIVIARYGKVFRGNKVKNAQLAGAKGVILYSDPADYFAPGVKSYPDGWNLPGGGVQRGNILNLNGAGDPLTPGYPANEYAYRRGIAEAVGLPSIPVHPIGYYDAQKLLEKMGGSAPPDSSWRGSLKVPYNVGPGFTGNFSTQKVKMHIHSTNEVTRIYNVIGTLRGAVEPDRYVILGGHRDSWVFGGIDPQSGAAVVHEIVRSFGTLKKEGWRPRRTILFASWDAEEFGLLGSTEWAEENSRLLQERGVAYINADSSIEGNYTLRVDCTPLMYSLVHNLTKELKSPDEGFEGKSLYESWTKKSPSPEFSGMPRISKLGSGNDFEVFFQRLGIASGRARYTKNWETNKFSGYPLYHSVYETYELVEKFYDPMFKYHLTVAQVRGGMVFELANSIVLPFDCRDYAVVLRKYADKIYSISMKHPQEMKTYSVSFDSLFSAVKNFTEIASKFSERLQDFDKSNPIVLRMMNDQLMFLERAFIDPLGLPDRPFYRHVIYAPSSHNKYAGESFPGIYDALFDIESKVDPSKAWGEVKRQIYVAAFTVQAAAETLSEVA

The source of these data is article PMC10223019, “Preclinical Evaluation of a PSMA-Targeting Homodimer with an Optimized Linker for Imaging of Prostate Cancer” (Molecules, 2023).

Structures are written as SMILES.

Broadly, the IC50 is the concentration that gives 50% inhibition.

In the case of `CC(C)C[C@H](NC(=O)[C@H](Cc1ccccc1)NC(=O)[C@@H](N)CN)[C@@H](O)CC(=O)NCCCCCC(=O)NCCCC[C@H](NC(=O)N[C@@H](CCC(=O)O)C(=O)O)C(=O)O` [Compound 15], the IC50 was 3.17 nM.
